Earlier results as cited in patent publication US8361509B2, “Pharmaceutical dosage forms for the release of active compounds” (Laboratorios Farmacéticos Rovi, S.A., priority 2000, dated 2013).

Conditions: administered intestinally

Substance: insulin
- increase in bioavailability on reduction in particle size from 180-230 μm to <43 μm: 18 fold
